Reference: patent US20250356957A1, “EMULATOR OF SUBCUTANEOUS ABSORPTION AND RELEASE” (UNIVERSITY OF KANSAS, priority 2022, published 2025)
Where two headings read alike, the source gives them in different places.

Conditions: 0.5-mL injection of 30 mg/mL solution

Bovine serum albumin [BSA]
release fraction (%) (2.5-mg/mL HA solution): ~28% | release fraction (%) (5-mg/mL HA solution): ~21% | release fraction (%) (7.5-mg/mL HA solution): ~24% | release fraction (%) (subcutaneous chamber filled with PBS): ~52%
